The values that follow come from article PMC4792735 (Clinical pharmacokinetics, 2016).

In the test the target is T1, human MATE1 (Homo sapiens, UniProt Q96FL8).
T1 sequence (Q96FL8 1-570): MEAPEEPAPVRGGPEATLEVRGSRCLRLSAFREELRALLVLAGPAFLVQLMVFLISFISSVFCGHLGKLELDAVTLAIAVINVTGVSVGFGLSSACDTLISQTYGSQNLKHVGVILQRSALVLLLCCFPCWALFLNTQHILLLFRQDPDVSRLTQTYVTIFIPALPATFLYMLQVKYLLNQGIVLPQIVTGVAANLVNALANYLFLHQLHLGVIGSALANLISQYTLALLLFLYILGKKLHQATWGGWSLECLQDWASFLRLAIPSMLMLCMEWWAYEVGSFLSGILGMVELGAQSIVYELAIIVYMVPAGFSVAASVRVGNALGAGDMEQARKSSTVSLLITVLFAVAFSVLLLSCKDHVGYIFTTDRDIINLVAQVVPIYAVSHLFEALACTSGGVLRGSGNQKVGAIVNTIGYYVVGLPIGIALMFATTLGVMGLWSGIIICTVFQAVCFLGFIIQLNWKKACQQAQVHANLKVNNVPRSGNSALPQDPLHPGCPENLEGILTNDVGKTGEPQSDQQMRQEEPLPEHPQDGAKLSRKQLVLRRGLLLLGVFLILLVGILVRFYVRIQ
The test can be described thus: cell-based.

pIC50: −log10 of the molar value.

The pIC50 is −log10 of the IC50, conventionally taken in molar units. Higher therefore signals a small IC50. Compound `CNC(=C[N+](=O)[O-])NCCSCc1ccc(CN(C)C)o1` [ranitidine] gave a pIC50 of 5.39.
